For this assay, the system named is TERT-RPE1. The experiment in a line: Induction of DNA repair in human RPE-1 cells assessed as reduction in NHEJ level at 50 uM by pathsig-ddPCR analysis. The format is functional, cell-based.

Each structure is given as a SMILES string. Calls of active or inactive are those of the source. The rule behind the calls is not given here.

`COc1ccc([C@@H](O)c2cc(-c3ncnc4cc(N5CCOCC5)ccc34)c(F)cc2Cl)nn1`: the outcome was Active.

Source of the values: ChEMBL document CHEMBL5370599, “Discovery of a 53BP1 Small Molecule Antagonist Using a Focused DNA-Encoded Library Screen” (J Med Chem, 2023).
